This is an account of results in PubChem BioAssay (NCI).

Common to all, as to test: NCI-60 one-dose screen, 48 h (100 = growth as untreated, 0 = no growth, -100 = all killed)
Holding throughout (conditions): 10 µM unless noted

The subject of assay [1] is SK-MEL-2 melanoma.
Assay [2] concerns EKVX NSCLC.
The test system of assay [3] is SN12C renal.
Assay [4] concerns UO-31 renal.
Assay [5] has as its system TK-10 renal.
Assay [6] has as its system ACHN renal.
For assay [7], the system named is CAKI-1 renal.
The subject of assay [8] is A498 renal.
The test system of assay [9] is HL-60(TB) leukemia.
The subject of assay [10] is CCRF-CEM leukemia.
Assay [11] relates to MOLT-4 leukemia.
The test system of assay [12] is SR leukemia.
For assay [13], the system named is RPMI-8226 leukemia.
Assay [14] concerns OVCAR-8 ovarian.
For assay [15], the system named is OVCAR-5 ovarian.
Assay [16] concerns OVCAR-4 ovarian.
In assay [17] the test system is SK-OV-3 ovarian.
For assay [18], the system named is IGROV1 ovarian.
Assay [19] concerns OVCAR-3 ovarian.
The subject of assay [20] is HS 578T breast.

Values joined by “and” are separate entries in the source; they are usually repeats but may differ in a detail not shown here. Equal entries are not always repeated. Only a part is listed here, and it is no random draw.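 Activity criterion: percent growth below 10, measured after cells in 96-well plates were exposed to a single compound concentration for 48 hours.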 Active and inactive are the calls of the source.

Regarding `CC(=O)Nc1ccc([As](=O)(O)O)c(O)c1`, the growth in [1] was inactive: 113%; in assay [2] it was inactive: 90.6%; in assay [3], inactive: 106%; in [4], inactive: 94.1%; in assay [5] it was inactive: 105%; in assay [6], inactive: 109%. Moreover, the growth in assay [7] was inactive: 93.5%; in assay [8], inactive: 99.2%; in assay [9], inactive: 88.8%; in assay [10] it was inactive: 98.8%; in assay [11] it was inactive: 95.7%; in assay [12], inactive: 97.8%. In addition, the growth in [13] was inactive: 95.7%; in assay [14], inactive: 94.2%; in assay [15], inactive: 116%; in assay [16], inactive: 103%; in assay [17] it was inactive: 104%; in assay [18], inactive: 96.3%. Also, the growth is inactive: 105% in assay [19] and inactive: 97.2% in [20].

Regarding `COc1cc([N+](=O)[O-])c([N+](=O)[O-])cc1OC`, the growth in [1] was inactive: 97.9% and inactive: 107%; in [2], inactive: 100% and inactive: 109%; in assay [3] it was inactive: 94.8% and inactive: 102%; in assay [4], inactive: 92.4% and inactive: 93.8%; in assay [5] it was inactive: 123% and inactive: 109%; in assay [6] it was inactive: 109% and inactive: 114%. In addition, the growth in assay [7] was inactive: 105%; in assay [8], inactive: 89.5% and inactive: 101%; in [9], inactive: 72% and inactive: 103%; in [10], inactive: 92.2% and inactive: 104%; in [11], inactive: 78.7% and inactive: 97.7%; in [12], inactive: 78% and inactive: 101%. Moreover, the growth in assay [13] was inactive: 100%; in [14], inactive: 97.9% and inactive: 106%; in assay [15] it was inactive: 107%; in assay [16], inactive: 91.6% and inactive: 113%; in [17], inactive: 97.4% and inactive: 108%; in [18] it was inactive: 117% and inactive: 103%. Further, the growth in assay [19] is inactive: 114% and inactive: 106%; in [20] it was inactive: 109% and inactive: 115%.

As to `O=[As](O)(c1ccc(O)cc1)c1ccccc1O`, the growth in assay [1] was inactive: 102%; in assay [2] it was inactive: 94%; in assay [3], inactive: 97.1%; in [4], inactive: 92.5%; in assay [5], inactive: 94.3%; in assay [6], inactive: 99.1%. Besides, the growth in assay [7] was inactive: 98.1%; in [8] it was inactive: 101%; in assay [9], inactive: 95.5%; in assay [10] it was inactive: 90.5%; in assay [11], inactive: 100%; in [12], inactive: 104%. The growth in assay [13] is inactive: 76.7%; in assay [14], inactive: 107%; in assay [15] it was inactive: 99.6%; in [16] it was inactive: 98.5%; in [17], inactive: 98%; in [18], inactive: 111%. The growth in assay [19] is inactive: 108%; in assay [20], inactive: 97%.

With `O=P1(N(CCCl)CCCl)OCCCS1` (stereo not given), the growth in assay [1] is inactive: 118%; in [2], inactive: 101%; in [3], inactive: 108%; in assay [4], inactive: 103%; in [5] it was inactive: 108%; in assay [6], inactive: 97.6%. Besides, the growth in [7] is inactive: 113%; in assay [8], inactive: 76.7%; in assay [9], inactive: 93.4%; in [10], inactive: 97.6%; in assay [11] it was inactive: 94.8%; in [12], inactive: 110%. Further, the growth in assay [13] is inactive: 104%; in [14], inactive: 103%; in [15], inactive: 107%; in assay [16], inactive: 100%; in assay [17], inactive: 110%; in [18] it was inactive: 118%. Besides, the growth is inactive: 112% in [19] and inactive: 120% in assay [20].

As for `O=[As](O)(c1ccccc1Br)c1ccccc1Br`, the growth in assay [1] is inactive: 104%; in assay [2], inactive: 108%; in assay [3], inactive: 95.1%; in assay [4], inactive: 80.7%; in assay [5], inactive: 107%; in [6], inactive: 97.3%. Besides, the growth was inactive: 102% in [7]; inactive: 107% in assay [8]; inactive: 65.4% in [9]; inactive: 99.4% in assay [10]; inactive: 95% in [11]; inactive: 89.3% in assay [12]. For the same molecule, the growth in assay [13] was inactive: 104%; in assay [14], inactive: 109%; in assay [15], inactive: 103%; in assay [16], inactive: 106%; in assay [17], inactive: 103%; in assay [18] it was inactive: 113%. The growth in assay [19] is inactive: 103%; in assay [20] it was inactive: 107%.

Consider `Cc1ccc(S(=O)(=O)n2cc([C@@]3(O)C[C@H](CC#N)OC3=O)c3ccccc32)cc1`, for which the growth is inactive: 36.3% in assay [1]; inactive: 27.5% in assay [2]; inactive: 24.8% in assay [3]; inactive: 20.3% in assay [4]; inactive: 21.3% in [5]; inactive: 22.2% in assay [6]. In addition, the growth is inactive: 18.2% in [7]; inactive: 10.3% in assay [8]; active: -43.1% in assay [9]; active: 6.81% in assay [10]; active: 6.25% in assay [11]; active: 1.03% in assay [12]. Further, the growth in assay [13] was active: -24.7%; in assay [14] it was inactive: 12.2%; in [15] it was inactive: 46.6%; in assay [16], inactive: 38.4%; in assay [17], inactive: 40.8%; in assay [18] it was active: -15.2%. Besides, the growth was active: -49.3% in assay [19] and active: -10.3% in [20].

For `O=P1(N(CCCl)CCCl)OCCCN1CCCl` (stereo not given), the growth in [1] is inactive: 109%; in assay [2], inactive: 115%; in [3] it was inactive: 111%; in [4], inactive: 101%; in [5] it was inactive: 104%; in [6], inactive: 108%. In addition, the growth was inactive: 101% in [7]; inactive: 95.1% in [8]; inactive: 105% in assay [9]; inactive: 96.9% in assay [10]; inactive: 115% in [11]; inactive: 113% in assay [12]. Besides, the growth is inactive: 102% in [13]; inactive: 105% in assay [14]; inactive: 101% in assay [15]; inactive: 112% in assay [16]; inactive: 106% in [17]; inactive: 132% in assay [18]. In addition, the growth was inactive: 114% in assay [19] and inactive: 101% in [20].
